In patent US20060105458A1, “Caged tetracycline (derivatives), their generation, and their use for photoactivated gene expression” (priority 2002, published 2006):

Tested on: beta-glucuronidase (GUS) reporter in genetically modified tobacco plants
Conditions: 2 μM, hand-held UV lamp

GUS expression, irradiated half of leaf piece: significant GUS expression
Substance: 1-(4,5-dimethoxy-2-nitrophenyl)-ethyl-caged doxycycline [DMNPE-caged doxycycline]
